Columns and labels:
[1] = In vitro selectivity ratio of PDE2 of Rat kidney to human platelet PDE5 was determined
Procedure, shortened: (§1)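 Scintillation proximity PDE assay at room temperature, read by scintillation counting. Substrates: [³H]cGMP for PDE5 (sonicated human platelet homogenate) and PDE1 (bovine heart, with 1 µM calmodulin and 4 mM calcium). PDE2 (rat kidney cytosol, Mono-Q purified) used [³H]cAMP plus 1 µM nonradioactive cGMP. PDE6 was stripped from bovine rod outer segments and trypsin-activated. Blank subtracted; activity as percent of vehicle; ratio = IC50 other/IC50 PDE5.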

[2] = test system: cGMP-specific 3',5'-cyclic phosphodiesterase (Oryctolagus cuniculus); assay: Rabbit Corpus Cavernosum functional assay at 30 nM to determine the efficacy of PDE5 inhibition activity.
[3] = In vitro selectivity ratio of Bovine Heart PDE1 to human platelet PDE5 was determined; procedure, shortened: as §1
[4] = In vitro selectivity ratio of PDE6 of Bovine retina to human platelet PDE5 was determined; procedure, shortened: as §1

SMILES | IC50 ratio [1] | Control relaxation [2] [%] | IC50 ratio [3] | IC50 ratio [4]
CCCOc1ccc(S(=O)(=O)N2CCN(CC)CC2)cc1-c1nc(O)c2cc3c(cc2n1)ncn3Cc1ccccc1OC | > 10000 | 140 | > 10000 | 90
CCCOc1ccc(S(=O)(=O)N2CCN(C)CC2)cc1-c1nc(O)c2cc3c(cc2n1)ncn3Cc1ccc(F)cc1 | > 10000 | 90 | > 10000 | 60
